From patent US9849116B2 (KNOPP BIOSCIENCES LLC, priority 2008, dated 2017)

Experiments:
[1] = clinical; conditions: human, oral
[2] = clinical; conditions: human, plasma

## CCCN[C@@H]1CCc2nc(N)sc2C1 [(R)-pramipexole, (6R)-4,5,6,7-tetrahydro-N6-propyl-2,6-benzothiazole-diamine]
[1]; in vivo, 150 mg
  half-life: 6.28 ± 1.48 h
[1]; plasma
  half-life: 6 to 7 h
[2]; oral, 50 mg
  half-life: 6.96 ± 1.3 h
[2]; oral, 100 mg
  half-life: 7.88 ± 1.19 h
[2]; po, 100 mg
  half-life: 6.57 ± 0.88 h
